Values quoted from earlier work, collected in publication PMC11597817, “Modulation of Multispecific Transporters by Uncaria tomentosa Extract and Its Major Phytoconstituents” (Pharmaceutics, 2024).

How the values were obtained:
[1] = tested on: MDR1; conditions: cited from earlier work
[2] = tested on: Rat MDR1; conditions: cited from earlier work

**Q.** Which Type of interaction [1] does the source give for `CC1(C)C2CCC1(C)C(O)C2` (centres unmarked) [Borneol] here?
**A.** Its Type of interaction is “inhibitor”.

**Q.** And the Type of interaction [2]?
**A.** Its Type of interaction is “inhibitor”.
